The text below walks through data of patent US20110039721A1, “METHOD FOR PREDICTION ABOUT CARCINOGENICITY OF SUBSTANCE IN RODENT” (Chemicals Evaluation and Research Institute, priority 2007, published 2011).

Read-outs that look alike come from different tables or passages of the source.

One series concerns liver. The settings on record: cited from earlier work.
Series [1] concerns mRNA expressed from the genes (A) to (D) in rat liver. The experiment in a line: Behavior of genes (mRNA expression level, oligo-DNA microarray) in rat liver after 28-day oral administration. Type of series: in vivo. On the procedure:
A test solution was prepared by dissolving each of the carcinogens and the non-carcinogens shown in Tables 2 to 6 in the corresponding solvent shown in Tables 2 to 6. Each of the thus prepared test solutions and the solvents used for the preparation was administered by oral gavage to rats in each group. As the rats, male rats (F344 SPF rats) at 5 weeks of age obtained from Charles River Laboratories Japan, Inc. were used. The animals were divided into groups, each containing four individuals. The volume of the solvent administered to the vehicle control group was set to the same volume as that of the test solution administered to the carcinogen administration group or the non-carcinogen administration group. The administration of the test solution or the solvent was performed once daily for 28 days. Apiece was excised from the liver of each of the rats after a lapse of 28 days from the initiation of the administration, and the total RNA was extracted and purified.
The expression level of mRNA was compared between each of the chemical substance administration groups and the corresponding vehicle control group, and genes that satisfy the requirements described in (A) to (D) were selected, respectively.
The case where the expression level of mRNA in the carcinogen administration group or the non-carcinogen administration group is 1.5 times or more or 1/1.5 or less of the expression level of the corresponding mRNA expressed in the control group was determined to be significant. In this connection, the determination as to whether or not the change is significant was performed by taking into consideration the direction of increase or decrease in the expression level. In the case where the direction of increase or decrease is different as compared with the case where another carcinogen was administered, the change was determined to be not significant.

Setting [2] is: classification of the substance (Cr+/Cr−).
Where [3] appears, read: gene group (A), Unigene No. Rn.167075.
The mark [4] stands for this setting: gene group (C), Unigene No. Rn.120914.

Turning to `CC(N)=O` [TS067, Acetamide], the Liver carcinogenicity entry in the series with liver (in vivo) is reported as “Cr+”.
For the molecule `ClC(Cl)Cl` [TS056, Chloroform], the Liver carcinogenicity entry in the series on liver (setting [2]) is reported as “Cr+”.
As to `Cc1ccccc1[N+](=O)[O-]` [TS087, o-Nitrotoluene], in the series on liver (classification Cr+/Cr−), the Liver carcinogenicity result is “Cr+”.
Consider `Nc1ccc(N)c([N+](=O)[O-])c1` [TS012, 2-Nitro-p-phenylenediamine], for which the “Behavior of gene caused by administration of chemical substance, Gene No. 4846” value in series [1] (gene group (A), Unigene No. Rn.144554) is reported as “−”. Also, in series [1] (setting [3]), the “Behavior of gene caused by administration of chemical substance, Gene No. 2026” value is given as “+” and the “Behavior of gene caused by administration of chemical substance, Gene No. 4218” value is reported as “−”. Further, the “Behavior of gene caused by administration of chemical substance, Gene No. 6182” value in series [1] (gene group (A), Unigene No. Rn.5834) is given as “−”. The “Behavior of gene caused by administration of chemical substance, Gene No. 5600” value in series [1] (gene group (A), Unigene No. Rn.9836) is “−”. Besides, in series [1] (gene group (B), Unigene No. Rn.1430), the “Behavior of gene caused by administration of chemical substance, Gene No. 1494” value is recorded as “+”. Besides, in series [1] (gene group (B), Unigene No. Rn.19329), the “Behavior of gene caused by administration of chemical substance, Gene No. 2045” value was “−”. Also, the “Behavior of gene caused by administration of chemical substance, Gene No. 2203” value in series [1] (gene group (B), Unigene No. Rn.21240) is “−”. Besides, the “Behavior of gene caused by administration of chemical substance, Gene No. 533” value in series [1] (gene group (C), Unigene No. Rn.106184) is “+”. In addition, in series [1] (gene group (C), Unigene No. Rn.108075), the “Behavior of gene caused by administration of chemical substance, Gene No. 725” value is listed as “+”. In addition, in series [1] (gene group (C), Unigene No. Rn.11766), the “Behavior of gene caused by administration of chemical substance, Gene No. 1163” value was “−”. Moreover, the “Behavior of gene caused by administration of chemical substance, Gene No. 4973” value in series [1] (gene group (C), Unigene No. Rn.118529) was “−”. The “Behavior of gene caused by administration of chemical substance, Gene No. 4095” value in series [1] (gene group (C), Unigene No. Rn.119024) is “−”. For the same molecule, in series [1] (setting [4]), the “Behavior of gene caused by administration of chemical substance, Gene No. 1334” value is reported as “−” and the “Behavior of gene caused by administration of chemical substance, Gene No. 6620” value is given as “−”. In addition, the “Behavior of gene caused by administration of chemical substance, Gene No. 6303” value in series [1] (gene group (C), Unigene No. Rn.123063) was “+”. In series [1] (gene group (C), Unigene No. Rn.143213), the “Behavior of gene caused by administration of chemical substance, Gene No. 5878” value is “+”. Further, in series [1] (gene group (C), Unigene No. Rn.144946), the “Behavior of gene caused by administration of chemical substance, Gene No. 1131” value is “+”. In series [1] (gene group (C), Unigene No. Rn.14744), the “Behavior of gene caused by administration of chemical substance, Gene No. 1562” value is given as “−”. Moreover, the “Behavior of gene caused by administration of chemical substance, Gene No. 1741” value in series [1] (gene group (C), Unigene No. Rn.1647) is recorded as “+”. The “Behavior of gene caused by administration of chemical substance, Gene No. 893” value in series [1] (gene group (C), Unigene No. Rn.164817) is given as “−”. In series [1] (gene group (C), Unigene No. Rn.167685), the “Behavior of gene caused by administration of chemical substance, Gene No. 6026” value is recorded as “−”. In addition, the “Behavior of gene caused by administration of chemical substance, Gene No. 154” value in series [1] (gene group (C), Unigene No. Rn.185941) is given as “−”. Moreover, the “Behavior of gene caused by administration of chemical substance, Gene No. 1993” value in series [1] (gene group (C), Unigene No. Rn.18728) is reported as “−”. Moreover, the “Behavior of gene caused by administration of chemical substance, Gene No. 813” value in series [1] (gene group (C), Unigene No. Rn.201760) is recorded as “+”. The “Behavior of gene caused by administration of chemical substance, Gene No. 2494” value in series [1] (gene group (C), Unigene No. Rn.23969) is reported as “−”. In addition, the “Behavior of gene caused by administration of chemical substance, Gene No. 2546” value in series [1] (gene group (C), Unigene No. Rn.24561) is “−”. In addition, the “Behavior of gene caused by administration of chemical substance, Gene No. 3776” value in series [1] (gene group (C), Unigene No. Rn.43232) is listed as “−”. In addition, the “Behavior of gene caused by administration of chemical substance, Gene No. 3929” value in series [1] (gene group (C), Unigene No. Rn.4620) is “−”. Moreover, the “Behavior of gene caused by administration of chemical substance, Gene No. 1119” value in series [1] (gene group (C), Unigene No. Rn.9757) is “−”. In addition, in series [1] (gene group (C), Unigene No. Rn.9779), the “Behavior of gene caused by administration of chemical substance, Gene No. 6742” value was “−”. The “Behavior of gene caused by administration of chemical substance, Gene No. 5634” value in series [1] (gene group (C), Unigene No. Rn.9862) is recorded as “−”. Also, the “Behavior of gene caused by administration of chemical substance, Gene No. 5726” value in series [1] (gene group (D), Unigene No. Rn.9939) is on record as “−”.
Take `O=[N+]([O-])c1ccc2ccc3cccc4ccc1c2c34` [TS064, 1-Nitropyrene]: in the series on liver (classification Cr+/Cr−), the Liver carcinogenicity entry is on record as “Cr−”.
`O=C(c1ccccc1)C(O)c1ccccc1` (centres unmarked) [TS038, Benzoin]: the Liver carcinogenicity result with liver (setting [2]) is reported as “Cr−”.
